Laboratory results as given in patent US8080659B2, “CXCR4 antagonists including diazine and triazine structures for the treatment of medical disorders” (Emory University, priority 2006, dated 2011).

Amino acid sequences for entries named in this document (tags omitted).
UniProt P61073, whole entry: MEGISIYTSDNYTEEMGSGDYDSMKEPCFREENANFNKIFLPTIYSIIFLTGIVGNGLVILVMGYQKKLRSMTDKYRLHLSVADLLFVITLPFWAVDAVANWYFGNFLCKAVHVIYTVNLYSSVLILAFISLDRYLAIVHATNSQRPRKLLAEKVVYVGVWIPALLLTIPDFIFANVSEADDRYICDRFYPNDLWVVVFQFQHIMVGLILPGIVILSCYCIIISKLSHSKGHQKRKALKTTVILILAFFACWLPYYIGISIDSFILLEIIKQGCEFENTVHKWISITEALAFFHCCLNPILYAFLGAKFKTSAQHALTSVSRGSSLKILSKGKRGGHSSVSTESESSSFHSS

Experiments:
CXCR4 = CXCR4 (Homo sapiens, UniProt P61073); test: SDF-1-stimulated Akt phosphorylation in MDA-MB-231 cells (western blot); details: 100 ng/ml SDF-1, 30 min, dose-dependent
MDA-MB-231 cells = test: cell viability of MDA-MB-231 cells; type: cell-based, human; details: 100 μM (the highest concentration tested)
Text: Using biotin-labeled TN14003 along with streptavidin-conjugated rhodamine allowed a determination of the binding efficiency of these chemicals to the SDF-1 binding site of CXCR4 on tumor cells and compared it to AMD3100-SDF-1 interactions (FIG. 7). […] On the other hand, some candidate compounds were as potent as TN14003 at very low concentrations. Therefore, one of these compounds, WZZL811S, was selected to study its therapeutic potential based on potency and low toxicity to cells (FIG. 9).

[1] = test system: human umbilical vein endothelial cells (HUVECs); test: endothelial capillary tube formation assay; type: cell-based; details: 100 nM; SDF-1 100 ng/ml; 18 hours
Procedure: The anti-angiogenic effect of test compounds was measured by analyzing endothelial cell growth and tube formation. The angiogenic effect of SDF-1 (100 ng/ml) on capillary formation by human umbilical vein endothelial cells (HUVECs) was examined in vitro using Matrigel-coated 24-well plates precoated with Matrigel and incubated for 18 hours. The angiogenic effect of SDF-1 was inhibited by either 100 nM TN14003 (peptide-based CXCR4 antagonist) or WZZL811S treatment (FIG. 14a, graph FIG. 14b).

## c1ccc(NCc2ccc(CNc3ccccn3)cc2)nc1
CXCR4
  block of SDF-1-stimulated phosphorylation of Akt: blocked
MDA-MB-231 cells
  cell viability: did not decrease cell viability
[1]
  angiogenic effect of SDF-1 on capillary tube formation: inhibited
